# Test system: O=c1[nH]c(=O)c2[nH]c(=O)[nH]c2[nH]1
# Experiment: purified protein, by the assay type
# Details: other: role: substrate; wild type Aspergillus flavus uricase (WT); pH 10.5; 25.0 °C
substance,measurement,value
"Aspergillus flavus uricase, wild type, SEQ ID NO: 7 (Aspergillus flavus)",kcat,1.23 ± 0.04 s⁻¹

# From US20260308536A1, “NOVEL URICASE VARIANTS AND METHODS OF USE THEREOF” (priority 2023, published 2026)
